# Literature values, collected in patent US20140371254A1, “NOVEL TREATMENT OF GEFITINIB-RESISTANT NON-SMALL-CELL LUNG CANCER” (Macau University of Science and Technology, priority 2013, published 2014).
# Columns and labels:
# Conditions in all cases: method not stated; cited from earlier work
# H1975 (EGFR^L858R+T790M) = tested on: H1975 (EGFR^L858R+T790M)
# [1] = tested on: H1650 (EGFR^Exon19 deletion)
# A549 (EGFR^Wild type) = tested on: A549 (EGFR^Wild type)
compound,measurement,setting,value
COc1cc2ncnc(Nc3ccc(F)c(Cl)c3)c2cc1OCCCN1CCOCC1 [Gefitinib],Gefitinib Sensitivity,H1975 (EGFR^L858R+T790M),Resistant
same,Gefitinib Sensitivity,[1],Resistant
same,Gefitinib Sensitivity,A549 (EGFR^Wild type),Moderately
